From patent publication US10995088B2, “Methylamine derivatives as lysysl oxidase inhibitors for the treatment of cancer” (The Institute of Cancer Research: Royal Cancer Hospital, priority 2016, dated 2021)

The chains behind the UniProt entries cited, without tags or fusion partners. Residues count along the entry.
UniProt Q9TRC7, 25-755 limits assumed: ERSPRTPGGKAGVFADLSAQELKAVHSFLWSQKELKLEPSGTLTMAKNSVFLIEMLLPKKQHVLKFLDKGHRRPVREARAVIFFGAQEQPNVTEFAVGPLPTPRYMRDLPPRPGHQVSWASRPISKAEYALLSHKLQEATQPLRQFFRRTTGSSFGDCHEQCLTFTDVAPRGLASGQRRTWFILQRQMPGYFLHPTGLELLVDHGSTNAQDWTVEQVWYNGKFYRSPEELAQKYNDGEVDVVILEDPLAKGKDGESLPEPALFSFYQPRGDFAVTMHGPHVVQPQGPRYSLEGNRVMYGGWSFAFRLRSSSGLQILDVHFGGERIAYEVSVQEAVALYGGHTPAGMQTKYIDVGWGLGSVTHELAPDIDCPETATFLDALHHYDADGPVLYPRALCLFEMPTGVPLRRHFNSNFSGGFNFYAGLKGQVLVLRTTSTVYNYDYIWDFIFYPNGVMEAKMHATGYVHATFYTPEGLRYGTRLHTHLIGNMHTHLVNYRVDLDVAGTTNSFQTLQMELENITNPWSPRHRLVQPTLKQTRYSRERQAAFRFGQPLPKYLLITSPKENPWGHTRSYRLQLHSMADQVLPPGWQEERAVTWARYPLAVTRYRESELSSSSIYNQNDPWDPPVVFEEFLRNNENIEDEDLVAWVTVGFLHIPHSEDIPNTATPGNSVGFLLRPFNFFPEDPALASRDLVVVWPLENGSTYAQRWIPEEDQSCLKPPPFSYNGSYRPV
UniProt P21397, whole entry: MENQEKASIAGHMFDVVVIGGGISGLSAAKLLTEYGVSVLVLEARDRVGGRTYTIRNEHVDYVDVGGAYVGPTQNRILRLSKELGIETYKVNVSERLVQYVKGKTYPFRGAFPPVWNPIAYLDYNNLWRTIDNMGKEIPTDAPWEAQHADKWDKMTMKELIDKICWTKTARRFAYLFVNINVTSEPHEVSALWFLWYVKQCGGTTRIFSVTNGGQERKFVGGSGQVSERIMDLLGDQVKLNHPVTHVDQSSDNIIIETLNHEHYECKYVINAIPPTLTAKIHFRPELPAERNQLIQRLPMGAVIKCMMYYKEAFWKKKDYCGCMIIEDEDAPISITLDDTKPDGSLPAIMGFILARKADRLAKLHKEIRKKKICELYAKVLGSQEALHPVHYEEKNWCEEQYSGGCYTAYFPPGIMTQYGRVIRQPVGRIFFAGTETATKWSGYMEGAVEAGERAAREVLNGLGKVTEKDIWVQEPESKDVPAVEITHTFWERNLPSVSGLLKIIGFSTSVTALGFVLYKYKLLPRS
UniProt P27338, whole entry: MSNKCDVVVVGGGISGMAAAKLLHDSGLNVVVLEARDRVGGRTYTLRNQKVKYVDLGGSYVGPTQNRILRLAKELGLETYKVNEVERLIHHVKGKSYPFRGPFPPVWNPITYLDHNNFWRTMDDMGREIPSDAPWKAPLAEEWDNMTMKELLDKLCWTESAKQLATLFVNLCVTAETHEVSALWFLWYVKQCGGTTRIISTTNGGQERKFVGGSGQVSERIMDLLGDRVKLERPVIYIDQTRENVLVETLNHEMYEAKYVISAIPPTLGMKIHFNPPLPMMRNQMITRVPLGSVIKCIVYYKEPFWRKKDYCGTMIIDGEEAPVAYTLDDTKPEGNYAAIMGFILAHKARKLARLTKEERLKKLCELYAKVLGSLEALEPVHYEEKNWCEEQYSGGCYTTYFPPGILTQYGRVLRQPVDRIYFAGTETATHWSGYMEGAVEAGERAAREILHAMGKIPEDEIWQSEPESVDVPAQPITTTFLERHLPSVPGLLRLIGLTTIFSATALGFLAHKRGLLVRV

What was measured:
DAO = DAO (Sus scrofa, UniProt Q9TRC7); settings: read-out: DAO IC50
MAO-A = MAO-A (Homo sapiens (Human), UniProt P21397); test: Monoamine oxidase A (MAO-A) selectivity assay (MAO-Glo); format: biochemical
MAO-B = MAO-B (Homo sapiens (Human), UniProt P27338); test: Monoamine oxidase B (MAO-B) selectivity assay (MAO-Glo)

| Structure (SMILES) | IC50 (DAO) | MAO-A inhibition (MAO-A) | MAO-B inhibition (MAO-B) |
| --- | --- | --- | --- |
| CS(=O)(=O)c1cc(-c2ccccc2)cc(S(=O)(=O)c2cnc(CN)s2)c1 | > 100 µM |  |  |
| CCc1cc(-c2ccccc2)cc(S(=O)(=O)c2cnc(CN)s2)c1 | > 100 µM |  |  |
| CS(=O)(=O)c1cc(-c2ccccc2)cc(S(=O)(=O)c2ccc(CN)s2)c1 |  | neither inhibits | neither inhibits |
